Our source for the Ratio IC50 values is ChEMBL document CHEMBL4406823 (Eur J Med Chem, 2019).

Chains of the proteins cited; added tags and fusions are not shown.
UniProt Q6B856, whole entry, looked up: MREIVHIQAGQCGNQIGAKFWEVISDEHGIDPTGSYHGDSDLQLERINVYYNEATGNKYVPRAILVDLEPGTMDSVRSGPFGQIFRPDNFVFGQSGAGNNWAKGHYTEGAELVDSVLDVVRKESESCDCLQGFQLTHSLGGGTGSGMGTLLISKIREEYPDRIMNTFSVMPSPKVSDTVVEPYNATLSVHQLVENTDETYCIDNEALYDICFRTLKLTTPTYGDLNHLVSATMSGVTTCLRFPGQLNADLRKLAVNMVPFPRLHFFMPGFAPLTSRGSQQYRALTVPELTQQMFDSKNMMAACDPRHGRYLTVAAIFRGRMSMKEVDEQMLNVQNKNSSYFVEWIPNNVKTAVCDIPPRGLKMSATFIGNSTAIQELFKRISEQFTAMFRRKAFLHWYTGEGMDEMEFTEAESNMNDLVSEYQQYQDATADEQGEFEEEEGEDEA

The experiment concerns the target Tubulin (Bos taurus) (UniProt Q6B856+Q862L2+Q862F3). Put plainly: Potency index, ratio of CA-4 IC50 to compound IC50 for bovine brain tubulin by spectrophotometric method.

As for `COc1cc(-c2n[nH]cc2-c2ccc(C)cc2)cc(OC)c1OC`, the Ratio IC50 came to 1.5. For `COc1ccc(-c2n[nH]cc2-c2cc(OC)c(OC)c(OC)c2)cc1`, the Ratio IC50 was 1.5. As for `CCOc1ccc(-c2c[nH]nc2-c2cc(OC)c(OC)c(OC)c2)cc1`, the Ratio IC50 stood at 1.5. The figure for `CCOc1ccc(-c2c[nH]nc2-c2cc(OC)c(OC)c(OC)c2)cc1Cl` is 1.5; for `CCOc1ccc(-c2n[nH]cc2-c2cc(OC)c(OC)c(OC)c2)cc1` it is 1.5; for `COc1ccc(-c2c[nH]nc2-c2cc(OC)c(OC)c(OC)c2)cc1` it is 1.5.
